{
  "sequences": {"note": "The chains behind the UniProt entries cited, without tags or fusion partners. Where a name states a change or a piece, a line headed by the entry shows the natural chain unless it says otherwise.", "UniProt P30994": "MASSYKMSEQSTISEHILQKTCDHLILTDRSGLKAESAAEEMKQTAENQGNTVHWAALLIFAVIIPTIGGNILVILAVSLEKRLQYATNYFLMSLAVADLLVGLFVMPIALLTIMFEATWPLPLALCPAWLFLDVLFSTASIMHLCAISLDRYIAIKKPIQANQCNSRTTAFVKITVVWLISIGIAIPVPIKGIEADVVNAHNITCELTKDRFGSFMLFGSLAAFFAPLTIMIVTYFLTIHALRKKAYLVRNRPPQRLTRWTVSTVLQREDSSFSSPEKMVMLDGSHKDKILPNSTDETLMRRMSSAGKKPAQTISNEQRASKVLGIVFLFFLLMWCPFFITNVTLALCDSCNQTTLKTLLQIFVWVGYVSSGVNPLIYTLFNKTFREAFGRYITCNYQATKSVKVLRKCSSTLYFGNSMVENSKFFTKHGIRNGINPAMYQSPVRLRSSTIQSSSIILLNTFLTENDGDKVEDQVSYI", "UniProt P08909": "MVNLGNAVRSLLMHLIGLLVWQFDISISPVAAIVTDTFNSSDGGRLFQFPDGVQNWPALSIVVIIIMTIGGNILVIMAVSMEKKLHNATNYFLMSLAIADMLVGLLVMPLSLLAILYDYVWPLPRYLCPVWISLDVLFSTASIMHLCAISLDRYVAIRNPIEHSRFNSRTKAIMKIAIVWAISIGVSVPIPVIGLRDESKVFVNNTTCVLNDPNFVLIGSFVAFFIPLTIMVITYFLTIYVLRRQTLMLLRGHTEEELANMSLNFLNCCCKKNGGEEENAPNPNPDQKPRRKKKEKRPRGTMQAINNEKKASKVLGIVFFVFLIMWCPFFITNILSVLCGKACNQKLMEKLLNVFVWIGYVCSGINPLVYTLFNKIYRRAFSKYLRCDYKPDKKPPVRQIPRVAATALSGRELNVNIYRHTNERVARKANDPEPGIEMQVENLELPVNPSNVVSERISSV", "UniProt P14842": "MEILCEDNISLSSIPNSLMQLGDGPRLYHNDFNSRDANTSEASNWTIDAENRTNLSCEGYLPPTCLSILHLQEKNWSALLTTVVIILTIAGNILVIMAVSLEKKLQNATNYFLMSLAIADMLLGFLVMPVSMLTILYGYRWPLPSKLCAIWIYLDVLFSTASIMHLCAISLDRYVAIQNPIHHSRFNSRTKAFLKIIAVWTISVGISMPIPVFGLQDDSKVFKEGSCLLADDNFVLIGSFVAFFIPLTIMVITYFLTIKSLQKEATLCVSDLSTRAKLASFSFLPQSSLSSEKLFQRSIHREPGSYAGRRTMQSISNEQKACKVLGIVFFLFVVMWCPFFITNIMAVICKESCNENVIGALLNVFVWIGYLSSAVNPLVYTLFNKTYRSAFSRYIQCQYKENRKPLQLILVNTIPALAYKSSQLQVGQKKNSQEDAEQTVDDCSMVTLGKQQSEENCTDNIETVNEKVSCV"},
  "source": "ChEMBL document CHEMBL1124016",
  "about": "“Antihypertensive activity in a series of 1-piperazino-3-phenylindans with potent 5-HT2-antagonistic activity” (J Med Chem, 1988)",
  "biological_target": "Serotonin 2 (5-HT2) receptor (Rattus norvegicus, UniProt P30994+P08909+P14842)",
  "experiment": "Inhibition of [3H]spiperone binding to 5-hydroxytryptamine 2 receptor from rat cortical membranes",
  "format": "cell membranes, Membrane",
  "data": [
    {"smiles": "Cc1nc2sccn2c(=O)c1CCN1CCC(=C(c2ccc(F)cc2)c2ccc(F)cc2)CC1", "note": "[RITANSERIN]", "values": [
      {"measurement": "IC50", "value": 4.4, "unit": "nM"}
    ]}
  ]
}
